Target: GSNOR (Homo sapiens (Human), UniProt P11766)
Experiment: GSNOR assay (inhibition of GSNOR activity in vitro, change in 340 nm absorbance with GSNO/NADH)
[1] = GSNOR IC50, Table 1, racemates and separated enantiomers

The chains behind the UniProt entries cited, without tags or fusion partners. Where a name states a change or a piece, a line headed by the entry shows the natural chain unless it says otherwise.
UniProt P11766: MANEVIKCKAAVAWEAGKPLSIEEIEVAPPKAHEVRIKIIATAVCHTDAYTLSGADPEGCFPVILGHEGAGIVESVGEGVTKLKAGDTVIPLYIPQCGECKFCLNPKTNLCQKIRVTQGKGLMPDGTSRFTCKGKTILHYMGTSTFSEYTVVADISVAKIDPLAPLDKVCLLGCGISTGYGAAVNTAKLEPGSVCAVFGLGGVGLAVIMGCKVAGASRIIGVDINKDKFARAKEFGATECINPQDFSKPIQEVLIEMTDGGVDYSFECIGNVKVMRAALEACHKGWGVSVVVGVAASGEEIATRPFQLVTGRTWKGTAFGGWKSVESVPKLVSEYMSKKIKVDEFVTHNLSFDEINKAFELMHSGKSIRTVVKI

Row | SMILES | IC50 [1] [nM] | IC50 (IC50, upper bound (about <)) [nM]
1 | CCOc1cc([C@@H]2NC(=O)NC(c3ccccc3)=C2c2ccccc2)cc([N+](=O)[O-])c1O [Example 2, (S)-4-(3-ethoxy-4-hydroxy-5-nitrophenyl)-5,6-diphenyl-3,4-dihydropyrimidin-2(1H)-one] | 11 | < 100
2 | CCOc1cc([C@H]2NC(=O)NC(c3ccccc3)=C2c2ccccc2)cc([N+](=O)[O-])c1O [Example 3, (R)-4-(3-ethoxy-4-hydroxy-5-nitrophenyl)-5,6-diphenyl-3,4-dihydropyrimidin-2(1H)-one] | 19700 | –
3 | CCOc1cc(C2NC(=O)NC(c3ccccc3)=C2c2ccccc2)cc([N+](=O)[O-])c1O (racemic) [Example 1, 4-(3-ethoxy-4-hydroxy-5-nitrophenyl)-5,6-diphenyl-3,4-dihydropyrimidin-2(1H)-one] | 29 | < 100
4 | CCOc1cc(C2NC(=O)NC(c3ccccc3)=C2c2ccsc2)cc([N+](=O)[O-])c1O (racemic) [Example 5, 4-(3-ethoxy-4-hydroxy-5-nitrophenyl)-6-phenyl-5-(thiophen-3-yl)-3,4-dihydropyrimidin-2(1H)-one] | 19 | –

Other lines, results leading:

Row | IC50 [1] [nM] | IC50 (IC50, upper bound (about <)) [nM] | SMILES
5 | 31000 | – | CCOc1cc([C@H]2NC(=O)NC(c3ccn(C)n3)=C2c2ccsc2)cc([N+](=O)[O-])c1O [Example 149, (R)-4-(3-ethoxy-4-hydroxy-5-nitrophenyl)-6-(1-methyl-1H-pyrazol-3-yl)-5-(thiophen-3-yl)-3,4-dihydropyrimidin-2(1H)-one]
6 | 1900 | – | CCOc1cc([C@H]2NC(=O)NC(c3cccnc3)=C2c2ccsc2)cc([N+](=O)[O-])c1O [Example 144, (R)-4-(3-ethoxy-4-hydroxy-5-nitrophenyl)-6-(pyridin-3-yl)-5-(thiophen-3-yl)-3,4-dihydropyrimidin-2(1H)-one]
7 | 24 | – | CCOc1cc(C2NC(=O)NC(c3cccnc3)=C2c2ccsc2)cc([N+](=O)[O-])c1O (racemic) [Example 116, 4-(3-ethoxy-4-hydroxy-5-nitrophenyl)-6-(pyridin-3-yl)-5-(thiophen-3-yl)-3,4-dihydropyrimidin-2(1H)-one]
8 | 16 | – | CCOc1cc([C@@H]2NC(=O)NC(c3cccnc3)=C2c2ccsc2)cc([N+](=O)[O-])c1O [Example 143, (S)-4-(3-ethoxy-4-hydroxy-5-nitrophenyl)-6-(pyridin-3-yl)-5-(thiophen-3-yl)-3,4-dihydropyrimidin-2(1H)-one]
9 | 40 | – | CCOc1cc(C2NC(=O)NC(c3ccn(C)n3)=C2c2ccsc2)cc([N+](=O)[O-])c1O (racemic) [Example 119, 4-(3-ethoxy-4-hydroxy-5-nitrophenyl)-6-(1-methyl-1H-pyrazol-3-yl)-5-(thiophen-3-yl)-3,4-dihydropyrimidin-2(1H)-one]
10 | 1820 | – | CCOc1cc([C@H]2NC(=O)NC(c3ccccc3)=C2c2ccsc2)cc([N+](=O)[O-])c1O [Example 7, (R)-4-(3-ethoxy-4-hydroxy-5-nitrophenyl)-6-phenyl-5-(thiophen-3-yl)-3,4-dihydropyrimidin-2(1H)-one]
